{"source": "PubChem BioAssay AID2112", "about": "(National Center for Advancing Translational Sciences (NCATS), 2009)", "note": "The list shows a part of the results, in another mix than the full data. The source made the active and inactive calls. Calls follow the shape of the dose curve; as a rule, active = well fitted inhibition curve with a large enough effect; inconclusive = small, poorly fitted or top-dose-only effect, or effect the other way, or another doubt; inactive = no such curve, though single readings can be large or run the other way."}
{"molecular_target": "Lysosomal alpha-glucosidase (Homo sapiens) (UniProt P10253)", "assay": "qHTS Assay for Inhibitors and Activators of Human alpha-Glucosidase From Spleen Homogenate;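 also: 0% = enzyme with vehicle and -100% = no enzyme basal signal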", "details": "4-MU-alpha-glucoside fluorescence; at 79.9 µM (top of the series) unless noted", "text": "NIH Chemical Genomics Center [NCGC] NIH Molecular Libraries Probe Production Centers Network [MLPCN] MLPCN Grant: R03 MH084841-01 Assay Submitter (PI): Wei Zheng NCGC Assay Overview: Alpha-glucosidase is responsible for the hydrolysis of terminal, non-reducing 1,4-linked alpha-D-glucose residues, which releases alpha-D-glucose. It is a lysosomal hydrolase that is required for the degradation of a small percentage (1-3%) of cellular glycogen in humans. Deficiency of this enzyme results in glycogen-storage disease type II (GSDII), also referred to as Pompe disease, an autosomal recessive disorder. Structurally normal glycogen is accumulated in the lysosomes and cytoplasm in affected patients, primarily in muscle tissues. Excessive glycogen storage within lysosomes may interrupt normal functioning of other organelles and leads to cellular injury. In turn, this leads to enlargement and dysfunction of the entire organ involved (eg: cardiomyopathy and muscle weakness). It has been reported that the improper folding and trafficking of alpha-glucosidase resulting from genetic mutations may account for a significant number of Pompe patients. […] We optimized this alpha-glucosidase assay in 1536-well plate format for identification of novel small molecule inhibitors or activators with structures other than the sugar analogs in order to develop new pharmacological chaperones. In particular, this assay is directed towards discovering compounds active in a more natural setting, tissue homogenate, that may have been missed by screens of the purified enzyme under more stringent conditions.\nNCGC Assay Protocol Summary: This is a fluorogenic enzyme assay with 4-methylumbelliferyl-alpha-D-glucopyranoside as the substrate and human spleen homogenate containing alpha-glucosidase as the enzyme preparation. Upon hydrolysis of this fluorogenic substrate, the resulting product, 4-methylumbelliferone (which excites at 365 nm and emits at 440 nm) can be detected by a fluorescence plate reader. Data were normalized to the controls for basal activity (without enzyme) and 100% activity (with enzyme). The AC50 values were determined from concentration-response data modeled with the standard Hill equation. Assay buffer: 50 mM citric acid (titrated with potassium phosphate to pH 5.0), 0.01% Tween-20 (pH 5.0 is an optimal condition for this enzyme assay) 1536-well assay protocol for the alpha-glucosidase from human spleen homogenate: (1) Add 2 ul/well spleen homogenate (1 ug) (2) Add 23 nL compounds in DMSO solution. The final titration was 0.5 nM to 58 uM. (3) Add 2 ul of substrate (1 mM final) (4) Incubate at 37 C for 40 min (5) Add 2 ul stop solution (1M NaOH and 1M Glycine mixture, pH 10) (6) Detect the assay plate in a ViewLux plate reader (PerkinElmer) with Ex=365 nm and Em=440nm. Keywords: Alpha-glucosidase, Pompe Disease, pharmacological chaperone, chaperone therapy, high throughput screening, alpha-glucosidase inhibitor, MLSMR, MLSCN, NIH Roadmap, qHTS and NCGC"}
{"compound": "C/C1=C2N=C(/C=C3N=C(/C(C)=C4\\[N-][C@@](C)([C@H]5N=C1[C@@](C)(CCC(=O)NC[C@H](C)OP(=O)([O-])O[C@@H]1[C@H](O)[C@H](n6cnc7cc(C)c(C)cc76)O[C@@H]1CO)[C@@H]5CC(N)=O)[C@](C)(CC(N)=O)[C@H]4CCC(N)=O)[C@@](C)(CC(N)=O)[C@@H]\\3CCC(N)=O)C(C)(C)[C@@H]/2CCC(N)=O.[C-]#N.[Co+3]", "activity change, negative = inhibition": "inactive: 5.6% [at 29.1 µM]"}
{"compound": "CP(=O)(OC12CC3CC(CC(C3)C1)C2)OC12CC3CC(CC(C3)C1)C2", "activity change, negative = inhibition": "inactive: -1.12%"}
{"compound": "CCOC(=O)c1ccc(NP(C)(=O)Oc2ccc(Cl)cc2)cc1", "note": "(stereo not given)", "activity change, negative = inhibition": "inactive: -1.03%"}
{"compound": "CN(C)C(=O)c1c([N+](=O)[O-])cc([N+](=O)[O-])cc1[N+](=O)[O-]", "activity change, negative = inhibition": "inactive: -1.6%"}
{"compound": "CP(=O)(Nc1ccc(Cl)cc1)Oc1ccc(F)cc1", "note": "(stereo not given)", "activity change, negative = inhibition": "inactive: 1.82%"}
{"compound": "CC(C)(C)c1ccc(OP(C)(=O)O)cc1", "activity change, negative = inhibition": "inactive: 4.1%"}
{"compound": "COc1ccccc1OP(C)(=O)Nc1ccccc1Br", "note": "(stereo not given)", "activity change, negative = inhibition": "inactive: 1.81%"}
{"compound": "CP(=O)(Oc1ccccc1)N1CCOC1=O", "note": "(stereo not given)", "activity change, negative = inhibition": "inactive: -1.62%"}
{"compound": "CCc1ccc(OP(C)(=O)Nc2cccnc2)cc1", "note": "(stereo not given)", "activity change, negative = inhibition": "inactive: 1.12%"}
{"compound": "COc1ccccc1OP(C)(=O)Nc1c(C)n(C)n(-c2ccccc2)c1=O", "note": "(stereo not given)", "activity change, negative = inhibition": "inactive: 4.11%"}
{"compound": "OCCSCCO", "activity change, negative = inhibition": "inactive: 0.556%"}
{"compound": "O=C(OCCCN1CCCC1)C(O)(c1ccccc1)C1CCCCC1", "note": "(stereo not given)", "activity change, negative = inhibition": "inactive: -17.1%"}
{"compound": "CCN(CC)CC(O)COC(=O)C(O)(c1ccccc1)C1CCCCC1", "note": "(stereo not given)", "activity change, negative = inhibition": "inactive: -6.72%"}
{"compound": "COc1ccc(OP(C)(=O)Nc2ccc(Br)cc2)cc1", "note": "(stereo not given)", "activity change, negative = inhibition": "inactive: -5.01%"}
{"compound": "CCc1ccc(OP(C)(=O)O)cc1", "activity change, negative = inhibition": "inactive: -1.37%"}
{"compound": "CP(=O)(Nc1ccccn1)Oc1ccccc1", "note": "(stereo not given)", "activity change, negative = inhibition": "inactive: -9%"}
{"compound": "COc1ccccc1OP(C)(=O)Nc1ccc(C)cc1C", "note": "(stereo not given)", "activity change, negative = inhibition": "inactive: -7.17%"}
{"compound": "O=[N+]([O-])c1cc([N+](=O)[O-])c(Nc2ccccn2)c([N+](=O)[O-])c1", "activity change, negative = inhibition": "inactive: -17.5%"}
{"compound": "Cc1c(NP(C)(=O)Oc2ccc(C(C)C)cc2)c(=O)n(-c2ccccc2)n1C", "note": "(stereo not given)", "activity change, negative = inhibition": "inactive: 1.91%"}
{"compound": "CN(C)CCOC(=O)C(O)(c1ccccc1)C1CCCC1", "note": "(stereo not given)", "activity change, negative = inhibition": "inactive: -28.1%"}
{"compound": "COc1ccc(OP(C)(=O)Nc2ccccn2)cc1", "note": "(stereo not given)", "activity change, negative = inhibition": "inactive: 2.45%"}
{"compound": "COc1ccccc1OP(C)(=O)Nc1ccc(Br)cc1", "note": "(stereo not given)", "activity change, negative = inhibition": "inactive: -0.59%"}
{"compound": "CP(=O)(OCCOc1ccccc1)OCCOc1ccccc1", "activity change, negative = inhibition": "inactive: 3.7%"}
{"compound": "CP(=O)(Nc1ccc(Cl)cc1Cl)Oc1ccccc1", "note": "(stereo not given)", "activity change, negative = inhibition": "inactive: 1.29%"}
{"compound": "Cc1nc2ccc3ccccc3c2o1.O=[N+]([O-])c1cc([N+](=O)[O-])c(O)c([N+](=O)[O-])c1", "activity change, negative = inhibition": "inactive: -12.7%"}
{"compound": "COc1ccc(OP(C)(=O)Nc2ccccc2Br)cc1", "note": "(stereo not given)", "activity change, negative = inhibition": "inactive: -7.12%"}
{"compound": "COc1ccccc1OP(C)(=O)Nc1ccc(C)c(C)c1", "note": "(stereo not given)", "activity change, negative = inhibition": "inactive: 1.89%"}
{"compound": "Cc1cc(C)cc(OP(C)(=O)Nc2cccc(C(F)(F)F)c2)c1", "note": "(stereo not given)", "activity change, negative = inhibition": "inactive: -0.933%"}
{"compound": "CCCCCOc1ccc(NP(C)(=O)Oc2ccc(Cl)cc2Cl)cc1", "note": "(stereo not given)", "activity change, negative = inhibition": "inactive: 4.33%"}
{"compound": "CP(=O)(Nc1ccccc1)Oc1ccc(F)cc1", "note": "(stereo not given)", "activity change, negative = inhibition": "inactive: -3.34%"}
{"compound": "CCN(CC)CCCOC(=O)C(O)(c1ccccc1)C1CCCCC1", "note": "(stereo not given)", "activity change, negative = inhibition": "inactive: -8.97%"}
{"compound": "COc1ccc(OP(C)(=O)Nc2ccc(SC(F)(F)F)cc2)cc1", "note": "(stereo not given)", "activity change, negative = inhibition": "inactive: 0.0173%"}
{"compound": "CCOC(=O)c1ccc(NP(C)(=O)Oc2ccc(F)cc2)cc1", "note": "(stereo not given)", "activity change, negative = inhibition": "inactive: 2.47%"}
{"compound": "CCC(C)(OO)OOC(C)(CC)OO", "note": "(stereo not given)", "activity change, negative = inhibition": "inactive: -1.67%"}
{"compound": "Cc1cccc([N+](=O)[O-])c1[N+](=O)[O-]", "activity change, negative = inhibition": "inactive: -2.95%"}
{"compound": "O=C(OCCN1CCN(CCOCc2ccccc2)CC1)C(O)(c1ccccc1)c1ccccc1", "activity change, negative = inhibition": "inactive: -5.11%"}
{"compound": "CC(C)c1ccc(OP(C)(=O)Nc2ccc(SC(F)(F)F)cc2)cc1", "note": "(stereo not given)", "activity change, negative = inhibition": "inactive: -3.67%"}
{"compound": "CP(=O)(Nc1ccccc1F)Oc1ccccc1", "note": "(stereo not given)", "activity change, negative = inhibition": "inactive: -2.11%"}
{"compound": "CCN(CCCl)Cc1ccccc1C", "activity change, negative = inhibition": "inactive: 4.59%"}
{"compound": "Cc1ccccc1NP(C)(=O)Nc1ccccc1C", "activity change, negative = inhibition": "inactive: -3.38%"}
{"compound": "[NH4+].[O-][Cl+3]([O-])([O-])[O-]", "activity change, negative = inhibition": "inactive: 8.17%"}
{"compound": "CP(=O)(Nc1ccc2c(c1)OCCO2)Oc1ccccc1", "note": "(stereo not given)", "activity change, negative = inhibition": "inactive: -4.78%"}
{"compound": "CCOP(=O)(CC)OCC", "activity change, negative = inhibition": "inactive: 2.54%"}
{"compound": "CCOP(C)(=S)SCC(=O)NC(C)(CC)C(=O)O", "note": "(stereo not given)", "activity change, negative = inhibition": "inactive: -4.85%"}
{"compound": "CP(=O)(Nc1ccc(SC(F)(F)F)cc1)Oc1ccc(F)cc1", "note": "(stereo not given)", "activity change, negative = inhibition": "inactive: 3.7%"}
{"compound": "Cc1ccc([N+](=O)[O-])c([N+](=O)[O-])c1", "activity change, negative = inhibition": "inactive: -5.76%"}
{"compound": "Cc1c([N+](=O)[O-])cccc1[N+](=O)[O-]", "activity change, negative = inhibition": "inactive: 7.76%"}
{"compound": "Cc1cc(-c2cccc3ccccc23)c(C)cn1.O=[N+]([O-])c1cc([N+](=O)[O-])c(O)c([N+](=O)[O-])c1", "activity change, negative = inhibition": "inactive: 4.9%"}
{"compound": "O=[N+]([O-])c1ccc(OP2(=O)COCCO2)cc1", "note": "(stereo not given)", "activity change, negative = inhibition": "inactive: 0.019%"}
{"compound": "COc1ccc(NP(C)(=O)Oc2ccccc2OC)cc1", "note": "(stereo not given)", "activity change, negative = inhibition": "inactive: 2.59%"}
{"compound": "CN(C)CCOC(=O)C(O)(c1ccccc1)C1CCCCC1", "note": "(stereo not given)", "activity change, negative = inhibition": "inactive: -6.64%"}
{"compound": "COc1ccc(OP(C)(=O)Nc2cccc(Br)c2)cc1", "note": "(stereo not given)", "activity change, negative = inhibition": "inactive: -2.56%"}
{"compound": "CP(=O)(Nc1ccc(SC(F)(F)F)cc1)Oc1ccccc1", "note": "(stereo not given)", "activity change, negative = inhibition": "inactive: 7.27%"}
{"compound": "CCCOc1ccc(NP(C)(=O)Oc2ccc(Cl)cc2)cc1", "note": "(stereo not given)", "activity change, negative = inhibition": "inactive: 4.14%"}
{"compound": "COc1ccccc1OP(C)(=O)Nc1c(C)cccc1C", "note": "(stereo not given)", "activity change, negative = inhibition": "inactive: -9.46%"}
{"compound": "CN1CCCCC1COC(=O)C1(O)c2ccccc2CCc2ccccc21", "note": "(stereo not given)", "activity change, negative = inhibition": "inactive: -1.86%"}
{"compound": "O=[N+]([O-])c1cc([N+](=O)[O-])c(Nc2nnnn2CCO)c([N+](=O)[O-])c1", "activity change, negative = inhibition": "inactive: -2.4%"}
{"compound": "Cc1nc2ccc3ccccc3c2s1.O=[N+]([O-])c1cc([N+](=O)[O-])c(O)c([N+](=O)[O-])c1", "activity change, negative = inhibition": "inactive: -13.5%"}
{"compound": "CC(C)N(CCCl)C(C)C", "activity change, negative = inhibition": "inactive: -2.45%"}
{"compound": "O=[N+]([O-])c1cc([N+](=O)[O-])c(-n2nnc3ccccc32)c([N+](=O)[O-])c1", "activity change, negative = inhibition": "inactive: 8.21%"}
